Data from ChEMBL document CHEMBL3596163, “Discovery of imidazo[1,5-a]pyridines and -pyrimidines as potent and selective RORc inverse agonists” (Bioorg Med Chem Lett, 2015).

Legend:
[1] = species on record: Homo sapiens; assay: Selectivity ratio of EC50 for GAL4-fused human FXR to EC50 for GAL4-fused human RORc
[2] = species on record: Homo sapiens; assay: Selectivity ratio of EC50 for GAL4-fused human LXRalpha to EC50 for GAL4-fused human RORc
[3] = species on record: Homo sapiens; assay: Selectivity ratio of EC50 for GAL4-fused human LXRbeta to EC50 for GAL4-fused human RORc
[4] = species on record: Homo sapiens; assay: Selectivity ratio of EC50 for GAL4-fused human PXR to EC50 for GAL4-fused human RORc

Measured: Ratio EC50

O=C(O)c1ccc(-c2nc(C(=O)c3c(Cl)cccc3C3CC3)n3c2CCCC3)c(F)c1
> 1000: [1] | [2] | [3] | [4]

O=C(O)c1ccc(-c2nc(C(=O)c3c(Cl)cccc3C(F)(F)F)n3ccccc23)c(F)c1
> 1000: [1] | [2] | [3] | [4]

O=C(O)c1ccc(-c2nc(C(=O)c3c(Cl)cccc3C(F)(F)F)n3ccccc23)cc1O
> 1000: [1] | [2] | [3] | [4]

O=C(O)c1ccc(-c2nc(C(=O)c3c(Cl)cccc3C(F)(F)F)n3c2CCCC3)c(F)c1
> 1000: [1] | [2] | [3] | [4]
